Two substances from patent US6022696A, “Methods of identifying agonists or antagonists of angiotensin IV” (Washington State University Research Foundation, priority 1998, dated 2000) can be followed below.

The assay concerns the target T1, AT4 receptor (Cavia porcellus, UniProt H0VNM7).
T1 sequence (H0VNM7 1-1025): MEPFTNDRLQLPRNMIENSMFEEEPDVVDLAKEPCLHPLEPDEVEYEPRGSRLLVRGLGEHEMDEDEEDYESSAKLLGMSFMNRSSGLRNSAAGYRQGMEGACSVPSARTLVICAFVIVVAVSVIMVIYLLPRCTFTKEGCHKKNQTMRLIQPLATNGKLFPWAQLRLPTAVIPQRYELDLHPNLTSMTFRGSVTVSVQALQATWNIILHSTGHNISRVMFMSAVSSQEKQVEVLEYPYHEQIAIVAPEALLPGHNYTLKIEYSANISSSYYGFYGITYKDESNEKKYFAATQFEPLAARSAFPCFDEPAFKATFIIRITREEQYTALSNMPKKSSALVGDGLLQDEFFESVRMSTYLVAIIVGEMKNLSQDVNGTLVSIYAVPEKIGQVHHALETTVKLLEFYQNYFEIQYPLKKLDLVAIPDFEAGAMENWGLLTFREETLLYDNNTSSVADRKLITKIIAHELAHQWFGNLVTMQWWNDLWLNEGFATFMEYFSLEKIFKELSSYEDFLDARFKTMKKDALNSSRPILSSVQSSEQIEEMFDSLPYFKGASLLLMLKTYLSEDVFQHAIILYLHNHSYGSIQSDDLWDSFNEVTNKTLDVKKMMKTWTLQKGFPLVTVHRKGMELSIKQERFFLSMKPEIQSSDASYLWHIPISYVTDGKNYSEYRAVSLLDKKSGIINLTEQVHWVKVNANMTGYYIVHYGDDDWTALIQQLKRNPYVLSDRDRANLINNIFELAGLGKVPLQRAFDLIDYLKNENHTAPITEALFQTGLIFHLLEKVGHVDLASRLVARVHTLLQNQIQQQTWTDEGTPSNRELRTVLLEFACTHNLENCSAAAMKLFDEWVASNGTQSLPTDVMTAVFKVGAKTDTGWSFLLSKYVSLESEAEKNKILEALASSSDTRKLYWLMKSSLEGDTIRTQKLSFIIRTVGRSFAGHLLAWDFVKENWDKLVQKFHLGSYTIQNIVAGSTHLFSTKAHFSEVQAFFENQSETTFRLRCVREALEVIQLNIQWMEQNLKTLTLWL
It is filed as binding, guinea pig. Particulars: read-out: Kd (nonbinding peptides).

Bounds are passed on as bounds.

As usually defined, the Kd is the constant that tells how readily two partners part at equilibrium. Arg8 -Vasopressin: the Kd is > 1 µM.

On to Neuropeptide Y, for which the Kd was > 1 µM.
